We go through four compounds from patent US20090099157A1, “TETRAHYDRO-PYRAZOLO-PYRIDINE THIOETHER MODULATORS OF CATHEPSIN S” (priority 2007, published 2009).

Amino acid sequences for entries named in this document (tags omitted). Residues count along the entry.
UniProt P25774, 115-331: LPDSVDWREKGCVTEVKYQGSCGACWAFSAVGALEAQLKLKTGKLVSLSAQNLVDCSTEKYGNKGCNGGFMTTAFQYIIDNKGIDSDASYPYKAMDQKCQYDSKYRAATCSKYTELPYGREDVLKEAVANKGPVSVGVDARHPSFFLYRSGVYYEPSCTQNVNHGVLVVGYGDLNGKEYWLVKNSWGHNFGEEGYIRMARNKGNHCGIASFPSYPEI

Read-outs that look alike come from different tables or passages of the source.

Test [1] concerns the target T1, Recombinant human cathepsin S (CatS) (Homo sapiens, UniProt P25774). As to conditions: read-out: CatS IC50; Table 4; average of results obtained; 10 μM substrate, pH 5.0.
The target in test [2] is T1, Recombinant human cathepsin S (CatS). Kind of test: biochemical.

For “(4R)-1-{1-[(2S)-3-(5-Acetyl-3-{3-[(2-pyrrolidin-1-ylethyl)sulfanyl]-4-(trifluoromethyl)phenyl}-4,5,6,7-tetrahydro-1H-pyrazolo[4,3-c]pyridin-1-yl)-2-hydroxypropyl]piperidin-4-yl}-4-hydroxypyrrolidin-2-one [Example 364]”, in test [1], the IC50 was found to be 260 nM.
Consider “1-[5-(Methylsulfonyl)-3-{3-[(2-morpholin-4-ylethyl)sulfanyl]-4-(trifluoromethyl)phenyl}-4,5,6,7-tetrahydro-1H-pyrazolo[4,3-c]pyridin-1-yl]-3-[4-(1H-pyrrolo[2,3-b]pyridin-3-yl)piperidin-1-yl]propan-2-ol [Example 801]”, for which the 50% inhibitory concentration (IC50) in test [1] was found to be 70 nM.
As to “2-[4-(3-{3-[3-{[2-(3,3-Difluoropyrrolidin-1-yl)ethyl]sulfanyl}-4-(trifluoromethyl)phenyl]-4,5,6,7-tetrahydro-1H-pyrazolo[4,3-c]pyridin-1-yl}-2-hydroxypropyl)piperazin-1-yl]pyridine-3-carbonitrile [Example 510]”, the 50% inhibitory concentration (IC50) in test [1] is 320 nM.
For the compound `OC(CN1CCCCC1)Cn1nc(-c2ccc(C(F)(F)F)c(SCCN3CCCCC3)c2)c2c1CCNC2` (stereo not shown) [Example 289, 1-Piperidin-1-yl-3-(3-{3-[(2-piperidin-1-ylethyl)sulfanyl]-4-(trifluoromethyl)phenyl}-4,5,6,7-tetrahydro-1H-pyrazolo[4,3-c]pyridin-1-yl)propan-2-ol], the half-maximal inhibitory concentration (IC50) in test [2] is 9570 nM.
